Results reported in ChEMBL document CHEMBL1221209.
Only a part of the results on these compounds is given; other tests are left out.

By UniProt entry, the sequences of proteins in these tests, tags left out.
UniProt O35678, whole entry: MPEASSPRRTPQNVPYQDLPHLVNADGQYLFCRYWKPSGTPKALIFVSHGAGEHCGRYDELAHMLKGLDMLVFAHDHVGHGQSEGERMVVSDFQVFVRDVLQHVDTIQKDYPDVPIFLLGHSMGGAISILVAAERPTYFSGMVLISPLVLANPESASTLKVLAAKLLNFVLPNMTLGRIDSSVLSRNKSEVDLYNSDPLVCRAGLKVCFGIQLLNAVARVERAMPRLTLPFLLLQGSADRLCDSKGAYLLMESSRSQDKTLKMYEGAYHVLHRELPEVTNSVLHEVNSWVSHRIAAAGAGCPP
UniProt O08914, whole entry: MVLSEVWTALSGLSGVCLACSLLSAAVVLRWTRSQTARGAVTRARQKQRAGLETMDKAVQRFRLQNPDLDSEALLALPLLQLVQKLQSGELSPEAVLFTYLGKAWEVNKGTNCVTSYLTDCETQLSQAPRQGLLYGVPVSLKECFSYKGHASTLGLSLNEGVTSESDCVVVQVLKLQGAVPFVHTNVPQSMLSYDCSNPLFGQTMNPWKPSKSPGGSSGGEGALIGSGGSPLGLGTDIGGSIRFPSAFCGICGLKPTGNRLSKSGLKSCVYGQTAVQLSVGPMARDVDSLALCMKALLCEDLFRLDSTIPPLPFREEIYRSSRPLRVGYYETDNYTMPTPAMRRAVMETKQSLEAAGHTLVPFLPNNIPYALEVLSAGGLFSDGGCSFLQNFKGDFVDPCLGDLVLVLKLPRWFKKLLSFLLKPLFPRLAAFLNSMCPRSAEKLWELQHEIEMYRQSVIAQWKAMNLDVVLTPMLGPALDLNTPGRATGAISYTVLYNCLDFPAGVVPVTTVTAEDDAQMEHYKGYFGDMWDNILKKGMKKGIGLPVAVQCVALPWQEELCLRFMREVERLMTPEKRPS

Columns and labels:
Brain [1] = assay: Disruption of endocannabinoid metabolism in Swiss Webster mouse brain assessed as saturated C22:0 fatty acid level per gram of tissue at 4 mg/kg, ip after 4 hrs; conditions: route intraperitoneal, strain Swiss Webster
Brain [2] = assay: Disruption of endocannabinoid metabolism in Swiss Webster mouse brain assessed as 2-arachidonylglycerol level per gram of tissue at 4 mg/kg, ip after 4 hrs; conditions: route intraperitoneal, strain Swiss Webster
Brain [3] = assay: Disruption of endocannabinoid metabolism in Swiss Webster mouse brain assessed as anandamide level per gram of tissue at 4 mg/kg, ip after 4 hrs; conditions: route intraperitoneal, strain Swiss Webster
Brain [4] = assay: Disruption of endocannabinoid metabolism in Swiss Webster mouse brain assessed as N-palmitoyl-ethanolamine level per gram of tissue at 4 mg/kg, ip after 4 hrs; conditions: route intraperitoneal, strain Swiss Webster
Brain [5] = assay: Disruption of endocannabinoid metabolism in Swiss Webster mouse brain assessed as arachidonic acid level per gram of tissue at 4 mg/kg, ip after 4 hrs; conditions: route intraperitoneal, strain Swiss Webster
Brain [6] = assay: Disruption of endocannabinoid metabolism in Swiss Webster mouse brain assessed as unsaturated C24:1 fatty acid level per gram of tissue at 4 mg/kg, ip after 4 hrs; conditions: route intraperitoneal, strain Swiss Webster
Brain [7] = assay: Inhibition of anandamide hydrolysis in Swiss Webster mouse brain at 4 mg/kg, ip after 4 hrs; conditions: route intraperitoneal, strain Swiss Webster
Brain [8] = assay: Inhibition of 2-arachidonylglycerol hydrolysis in Swiss Webster mouse brain at 4 mg/kg, ip after 4 hrs; conditions: route intraperitoneal, strain Swiss Webster
Brain [9] = assay: Disruption of endocannabinoid metabolism in Swiss Webster mouse brain assessed as unsaturated N-oleoyl-ethanolamine level per gram of tissue at 4 mg/kg, ip after 4 hrs; conditions: route intraperitoneal, strain Swiss Webster
Monoglyceride lipase = Monoglyceride lipase (Mus musculus, UniProt O35678); assay: Displacement of 2-arachidonylglycerol from MAGL in Swiss Webster mouse brain after 5 mins; conditions: strain Swiss Webster
[10] = molecular target: Fatty-acid amide hydrolase 1 (Mus musculus, UniProt O08914); assay: Displacement of [3H]anandamide from FAAH in Swiss Webster mouse brain after 5 mins
Brain [11] = assay: Disruption of endocannabinoid metabolism in KIAA1363 deficient Swiss Webster mouse brain assessed as N-palmitoyl-ethanolamine level per gram of tissue at 100 mg/kg, ip after 4 hrs; conditions: route intraperitoneal, strain Swiss Webster
Brain [12] = assay: Disruption of endocannabinoid metabolism in Swiss Webster mouse brain expressing KIAA1363 gene assessed as unsaturated C20:4 fatty acid level per gram of tissue at 100 mg/kg, ip after 4 hrs; conditions: route intraperitoneal, strain Swiss Webster
Brain [13] = assay: Disruption of endocannabinoid metabolism in KIAA1363 deficient Swiss Webster mouse brain assessed as 2-arachidonylglycerol level per gram of tissue at 100 mg/kg, ip after 4 hrs; conditions: route intraperitoneal, strain Swiss Webster
Brain [14] = assay: Disruption of endocannabinoid metabolism in KIAA1363 deficient Swiss Webster mouse brain assessed as unsaturated C24:1 fatty acid level per gram of tissue at 100 mg/kg, ip after 4 hrs; conditions: route intraperitoneal, strain Swiss Webster
Brain [15] = assay: Disruption of endocannabinoid metabolism in KIAA1363 deficient Swiss Webster mouse brain assessed as anandamide level per gram of tissue at 100 mg/kg, ip after 4 hrs; conditions: route intraperitoneal, strain Swiss Webster
Brain [16] = assay: Disruption of endocannabinoid metabolism in Swiss Webster mouse brain expressing KIAA1363 gene assessed as 2-arachidonylglycerol level per gram of tissue at 100 mg/kg, ip after 4 hrs; conditions: route intraperitoneal, strain Swiss Webster
Brain [17] = assay: Disruption of endocannabinoid metabolism in KIAA1363 deficient Swiss Webster mouse brain assessed as unsaturated C20:4 fatty acid level per gram of tissue at 100 mg/kg, ip after 4 hrs; conditions: route intraperitoneal, strain Swiss Webster
Brain [18] = assay: Disruption of endocannabinoid metabolism in KIAA1363 deficient Swiss Webster mouse brain assessed as saturated C22:0 fatty acid level per gram of tissue at 100 mg/kg, ip after 4 hrs; conditions: route intraperitoneal, strain Swiss Webster
Brain [19] = assay: Disruption of endocannabinoid metabolism in Swiss Webster mouse brain expressing KIAA1363 gene assessed as unsaturated C18:2 fatty acid level per gram of tissue at 100 mg/kg, ip after 4 hrs; conditions: route intraperitoneal, strain Swiss Webster
Brain [20] = assay: Disruption of endocannabinoid metabolism in Swiss Webster mouse brain expressing KIAA1363 gene assessed as arachidonic acid level per gram of tissue at 100 mg/kg, ip after 4 hrs; conditions: route intraperitoneal, strain Swiss Webster
Brain [21] = assay: Disruption of endocannabinoid metabolism in Swiss Webster mouse brain expressing KIAA1363 gene assessed as saturated C18:0 fatty acid level per gram of tissue at 100 mg/kg, ip after 4 hrs; conditions: route intraperitoneal, strain Swiss Webster
Brain [22] = assay: Disruption of endocannabinoid metabolism in Swiss Webster mouse brain expressing KIAA1363 gene assessed as saturated C22:0 lipid level per gram of tissue at 100 mg/kg, ip after 4 hrs; conditions: route intraperitoneal, strain Swiss Webster
Brain [23] = assay: Disruption of endocannabinoid metabolism in KIAA1363 deficient Swiss Webster mouse brain assessed as arachidonic acid level per gram of tissue at 100 mg/kg, ip after 4 hrs; conditions: route intraperitoneal, strain Swiss Webster
Brain [24] = assay: Disruption of endocannabinoid metabolism in Swiss Webster mouse brain expressing KIAA1363 gene assessed as unsaturated N-oleoyl-ethanolamine level per gram of tissue at 100 mg/kg, ip after 4 hrs; conditions: route intraperitoneal, strain Swiss Webster
Brain [25] = assay: Disruption of endocannabinoid metabolism in KIAA1363 deficient Swiss Webster mouse brain assessed as saturated C18:0 fatty acid level per gram of tissue at 100 mg/kg, ip after 4 hrs; conditions: route intraperitoneal, strain Swiss Webster
Brain [26] = assay: Disruption of endocannabinoid metabolism in Swiss Webster mouse brain expressing KIAA1363 gene assessed as N-palmitoyl-ethanolamine level per gram of tissue at 100 mg/kg, ip after 4 hrs; conditions: route intraperitoneal, strain Swiss Webster

CCOP(=O)(OCC)Oc1nc(Cl)c(Cl)cc1Cl
Activity (Brain [1]): 29 pmol/g | Activity (Brain [2]): 40 nmol/g | Activity (Brain [3]): 0.011 nmol/g | Activity (Brain [4]): 810 pmol/g | Activity (Brain [5]): 30 nmol/g | Activity (Brain [6]): 47 pmol/g | inhibition (INH) (Brain [7]): 82% | inhibition (INH) (Brain [8]): 75% | Activity (Brain [9]): 535 pmol/g

CCOP(=O)(OCC)Oc1ccc([N+](=O)[O-])cc1
IC50 (Monoglyceride lipase): 1.2 µM | IC50 [10]: 5.9 µM

CCOP(=S)(OCC)Oc1nc(Cl)c(Cl)cc1Cl
Activity (Brain [11]): 1510 pmol/g | Activity (Brain [12]): 19 pmol/g | Activity (Brain [13]): 54 nmol/g | Activity (Brain [14]): 191 pmol/g | Activity (Brain [15]): 0.019 nmol/g | Activity (Brain [16]): 19 nmol/g | Activity (Brain [17]): 19 pmol/g | Activity (Brain [18]): 160 pmol/g | Activity (Brain [19]): 18 pmol/g | Activity (Brain [20]): 34 nmol/g | Activity (Brain [21]): 651 pmol/g | Activity (Brain [22]): 120 pmol/g | Activity (Brain [23]): 17 nmol/g | Activity (Brain [24]): 651 pmol/g | Activity (Brain [25]): 779 pmol/g | Activity (Brain [26]): 1280 pmol/g
